# Binding of CDR-mutated scFvs to a peptide of the spike HR2 region

Data: MIT Lincoln Laboratory AlphaSeq set, Li et al. 2023, doi:10.1038/s41467-023-39022-2, as distributed in FLAb.

Antigen: PDVDLGDISGINAS, a 14-residue peptide of the SARS-CoV-2 spike HR2 region.

Parent: Ab-14, a human scFv built as VH, a (GGGGS)3 linker, VL. Only the CDRs of the light chain vary.
VH: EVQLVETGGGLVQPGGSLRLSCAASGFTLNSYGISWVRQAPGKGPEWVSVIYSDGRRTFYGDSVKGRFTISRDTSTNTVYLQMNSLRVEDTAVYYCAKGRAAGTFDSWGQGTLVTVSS
VL: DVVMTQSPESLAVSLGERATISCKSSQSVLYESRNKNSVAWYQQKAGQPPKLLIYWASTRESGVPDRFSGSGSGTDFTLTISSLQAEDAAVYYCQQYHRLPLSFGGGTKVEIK

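The parent was found by panning a naive human phage display library on the peptide. Designed CDR sequences, proposed from the first random library and measured here. Their group label is 14L_En_HC (En: ensemble of fine-tuned language models; HC: hill climbing; a sequence that several methods proposed may carry one label only). The assay is AlphaSeq: two haploid yeast populations carry antibody and antigen on their surface. Mating (16 h, 30 °C) was followed by selection of diploids and sequencing of their barcodes. A regression on co-assayed BCL2-family reference pairs converts the normalised counts of each replicate to an apparent Kd. There are six technical replicates.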

The whole VL of each variant is written out.
Scale: log10 of Kd in nM, estimated from mating counts; low values are strong binders.
The mean shown is taken over the replicates in which the pair was detected.
An entry "nd" has no value in the source: the pair was not observed among the diploids in that replicate. This suggests poor binding but is not conclusive.
Three control strains display no target. For all light chain designs, 4% of the pairings with them gave a signal, with a median of 2.64 and one signal in twenty below 1.59, so weak values seen in few replicates may be background. Also given: how often the same scFv was detected with the empty control strains, with their mean in brackets.
Values of this round are not directly comparable with the first-round values of the same sequences.
The authors averaged sequences with at least three values out of six and counted those with two or fewer as poor binders.

VL	log10 Kd, replicates	log10 Kd (nM), mean	empty controls
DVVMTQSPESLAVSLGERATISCIISQSMLYESATHNSIAWYQQKAGQPPKLLIYQTETREEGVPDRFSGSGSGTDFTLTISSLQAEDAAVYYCQQYAHLPLIFGGGTKVEIK	0.93 / 0.80 / 1.01 / 1.10 / 1.04 / 1.06	0.99	0/18
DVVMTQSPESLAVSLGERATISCTISQMWFIESKNRNNVAWYQQKAGQPPKLLIYEMTTREEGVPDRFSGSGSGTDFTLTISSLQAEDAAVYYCQDYDRLPLSFGGGTKVEIK	nd / 0.58 / 0.90 / 0.33 / nd / nd	0.61	0/18
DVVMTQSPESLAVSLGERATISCKISYMGEHFSTNHSAIAWYQQKAGQPPKLLIYQASTREQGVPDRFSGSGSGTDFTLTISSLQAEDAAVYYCQQYHRLPISFGGGTKVEIK	2.28 / 1.32 / 1.82 / 1.42 / 1.34 / 1.58	1.63	0/18
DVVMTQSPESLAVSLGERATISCNVGQLMDGETRNKNSVAWYQQKAGQPPKLLIYHQSTREDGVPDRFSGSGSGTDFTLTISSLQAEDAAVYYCQHYHRLPLIFGGGTKVEIK	0.96 / 0.68 / 0.24 / 0.13 / 0.97 / 0.42	0.57	0/18
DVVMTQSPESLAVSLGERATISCIISQSMLYESATHNSIAWYQQKAGQPPKLLIYQTSTREKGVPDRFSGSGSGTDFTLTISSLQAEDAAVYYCQQYHHLPLSFGGGTKVEIK	0.55 / 1.09 / 0.36 / 0.43 / 0.79 / 0.98	0.70	1/18 (1.87)
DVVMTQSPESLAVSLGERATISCTLSHSTDLEEVHKNSIAWYQQKAGQPPKLLIYDLMTRESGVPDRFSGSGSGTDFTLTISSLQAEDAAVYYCQQYHRLPLSFGGGTKVEIK	1.63 / 1.26 / 2.09 / 2.52 / 1.44 / 3.02	2.00	1/18 (2.20)
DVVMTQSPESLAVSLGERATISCIFSQSVLMGNMTRNSVAWYQQKAGQPPKLLIYQASTRFNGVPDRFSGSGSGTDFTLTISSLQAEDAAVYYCQQYHRLPLIFGGGTKVEIK	1.26 / 1.21 / 1.50 / 1.57 / 1.58 / 2.04	1.53	1/18 (3.65)
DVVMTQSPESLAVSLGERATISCKLLQTVMNGRSNRNNVAWYQQKAGQPPKLLIYHMTMREDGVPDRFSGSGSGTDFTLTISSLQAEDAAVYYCQQYFRLPLSFGGGTKVEIK	1.95 / 1.02 / 1.82 / 1.78 / 1.04 / 1.59	1.53	1/18 (2.01)
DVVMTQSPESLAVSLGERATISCMISQSFLIGMKAKNSVAWYQQKAGQPPKLLIYQTNTREQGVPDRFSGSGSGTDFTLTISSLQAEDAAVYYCQQYDRLPLIFGGGTKVEIK	0.55 / 0.69 / 0.52 / 0.96 / 0.63 / 0.75	0.68	0/18
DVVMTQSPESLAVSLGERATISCMMSMGYLGGMRAKNNVAWYQQKAGQPPKLLIYQEETREDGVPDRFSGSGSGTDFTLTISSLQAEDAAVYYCQQYHRLPLIFGGGTKVEIK	nd / nd / nd / nd / nd / nd	nd	0/18
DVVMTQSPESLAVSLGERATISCTISQSANMTSHGRNSVAWYQQKAGQPPKLLIYQAEMRESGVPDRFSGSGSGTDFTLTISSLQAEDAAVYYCQQYDRLPLSFGGGTKVEIK	nd / 2.05 / 2.42 / nd / nd / 0.80	1.76	0/18
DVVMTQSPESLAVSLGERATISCMIAQTLRGVGRNKNSVAWYQQKAGQPPKLLIYNAQTRESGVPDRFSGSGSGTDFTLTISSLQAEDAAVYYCQHYHRLPLSFGGGTKVEIK	nd / nd / nd / nd / nd / nd	nd	1/18 (-0.11)
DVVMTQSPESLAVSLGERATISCTISQMLLMQTSHKNNVAWYQQKAGQPPKLLIYGEETRYNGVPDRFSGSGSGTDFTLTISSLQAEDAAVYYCQQYHRLPLSFGGGTKVEIK	1.30 / 0.97 / 0.58 / 0.89 / 0.90 / 1.41	1.01	0/18
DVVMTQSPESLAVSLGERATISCKLSATTRYESQNKNSIAWYQQKAGQPPKLLIYEMTTRESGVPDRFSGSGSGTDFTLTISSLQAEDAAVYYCQCYHRLPLSFGGGTKVEIK	1.09 / 0.63 / 0.57 / 0.57 / 1.09 / 0.80	0.79	0/18
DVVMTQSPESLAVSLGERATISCHISPSFMVESRLKNSVAWYQQKAGQPPKLLIYQTTTRESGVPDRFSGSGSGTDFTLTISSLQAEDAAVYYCQQYDRLPLSFGGGTKVEIK	0.40 / 0.27 / 0.34 / 0.29 / 0.34 / 0.40	0.34	2/18 (2.06)
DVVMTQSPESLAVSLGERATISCKLSISALHESIDKKSIAWYQQKAGQPPKLLIYERSTRENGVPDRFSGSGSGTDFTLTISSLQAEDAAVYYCQQYHRLPLSFGGGTKVEIK	0.85 / 0.52 / 0.36 / 0.39 / 0.54 / 0.48	0.52	1/18 (2.59)
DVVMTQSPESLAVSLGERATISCKLYFNVGTVAHNTQSIAWYQQKAGQPPKLLIYDMERREDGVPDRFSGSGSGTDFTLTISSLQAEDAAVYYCQQYHRLPLSFGGGTKVEIK	0.25 / 0.21 / 0.10 / 0.04 / 0.14 / 0.33	0.18	4/18 (3.21)
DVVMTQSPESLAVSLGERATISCSLYDATLMESRNKNPIAWYQQKAGQPPKLLIYDVSTRPSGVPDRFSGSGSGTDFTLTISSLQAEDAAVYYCQQYDRLPLSFGGGTKVEIK	0.56 / 0.41 / -0.05 / -0.13 / 0.35 / 0.23	0.23	0/18
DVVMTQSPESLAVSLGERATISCTISHSTDLESVHKNSIAWYQQKAGQPPKLLIYDLMTRESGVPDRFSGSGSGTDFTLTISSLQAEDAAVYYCQQYDRLPLSFGGGTKVEIK	0.57 / 0.40 / 0.31 / 0.58 / 0.70 / 1.96	0.75	0/18
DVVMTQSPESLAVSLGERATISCKLPLATMVESVSKNNVAWYQQKAGQPPKLLIYELSTRGSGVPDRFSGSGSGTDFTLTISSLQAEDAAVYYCQQYNRLPLSFGGGTKVEIK	0.58 / 0.54 / 0.71 / 1.01 / 0.75 / 1.01	0.77	1/18 (2.47)
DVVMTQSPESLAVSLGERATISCKLSLMYQHTSRNKNNIAWYQQKAGQPPKLLIYERSTRESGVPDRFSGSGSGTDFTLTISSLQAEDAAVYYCQQYHHLPLSFGGGTKVEIK	0.71 / 0.47 / 0.48 / 0.51 / 0.51 / 0.61	0.55	2/18 (3.89)
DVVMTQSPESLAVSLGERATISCTISQMFLGESRLRNSVAWYQQKAGQPPKLLIYQASTRESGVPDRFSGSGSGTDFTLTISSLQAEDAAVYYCQSYDRLPLSFGGGTKVEIK	1.01 / 0.79 / 0.39 / 0.49 / 0.77 / 0.48	0.66	1/18 (2.96)
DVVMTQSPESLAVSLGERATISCKFGQGVHVESIMKNSIAWYQQKAGQPPKLLIYQTSTREEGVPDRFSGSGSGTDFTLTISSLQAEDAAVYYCQQYDRLPLSFGGGTKVEIK	0.63 / 0.25 / 0.13 / -0.04 / 0.26 / 0.38	0.27	1/18 (1.66)
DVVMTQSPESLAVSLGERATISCKISGMYEKESKNKNSVAWYQQKAGQPPKLLIYEMVNRESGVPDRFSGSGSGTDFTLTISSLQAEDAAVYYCQQYDRLPLSFGGGTKVEIK	0.75 / 0.54 / 0.35 / 0.59 / 0.33 / 0.99	0.59	0/18
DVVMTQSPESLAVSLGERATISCTISNSAQMESHNKNSVAWYQQKAGQPPKLLIYDLNVRGSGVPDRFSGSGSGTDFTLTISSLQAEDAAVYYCQQYDRLPLSFGGGTKVEIK	0.99 / 1.14 / 1.73 / 1.05 / 0.95 / 1.29	1.19	0/18

The first 3 entries again:

VL	log10 Kd, replicates	log10 Kd (nM), mean	empty controls
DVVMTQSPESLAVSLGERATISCIISQSMLYESATHNSIAWYQQKAGQPPKLLIYQTETREEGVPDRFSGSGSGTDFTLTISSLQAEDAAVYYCQQYAHLPLIFGGGTKVEIK	0.93 / 0.80 / 1.01 / 1.10 / 1.04 / 1.06	0.99	0/18
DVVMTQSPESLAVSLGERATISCTISQMWFIESKNRNNVAWYQQKAGQPPKLLIYEMTTREEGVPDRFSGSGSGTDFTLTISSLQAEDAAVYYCQDYDRLPLSFGGGTKVEIK	nd / 0.58 / 0.90 / 0.33 / nd / nd	0.61	0/18
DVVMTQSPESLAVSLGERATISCKISYMGEHFSTNHSAIAWYQQKAGQPPKLLIYQASTREQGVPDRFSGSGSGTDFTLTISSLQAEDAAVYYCQQYHRLPISFGGGTKVEIK	2.28 / 1.32 / 1.82 / 1.42 / 1.34 / 1.58	1.63	0/18